# In PubChem BioAssay AID504700 (The Scripps Research Institute Molecular Screening Center, 2011):
# Amino acid sequences for entries named in this document (tags omitted).
# UniProt P31323, whole entry, looked up: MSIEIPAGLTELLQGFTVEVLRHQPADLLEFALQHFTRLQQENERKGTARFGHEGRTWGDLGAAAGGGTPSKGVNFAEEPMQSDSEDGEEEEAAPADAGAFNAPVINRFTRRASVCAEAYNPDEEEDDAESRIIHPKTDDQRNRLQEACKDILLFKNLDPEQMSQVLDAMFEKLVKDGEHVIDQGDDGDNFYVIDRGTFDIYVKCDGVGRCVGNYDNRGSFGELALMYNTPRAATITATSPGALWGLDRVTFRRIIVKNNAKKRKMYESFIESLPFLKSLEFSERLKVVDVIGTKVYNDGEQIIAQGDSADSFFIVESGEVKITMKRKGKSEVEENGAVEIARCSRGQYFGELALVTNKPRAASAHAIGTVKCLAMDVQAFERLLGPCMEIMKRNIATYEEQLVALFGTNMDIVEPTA
# This is a selection; strong and weak results do not stand in their true shares. Calls of active or inactive are those of the source.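 The calls were made as follows: active = activation above a cutoff set at the mean over all compounds plus 3 SD (cut at about 18% in these data); inactive = the rest.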
# Target: cAMP-dependent protein kinase catalytic subunit beta (Homo sapiens) + cAMP-dependent protein kinase type II-beta regulatory subunit (Homo sapiens) (UniProt P22694+P31323)
# Experiment: activators of PKA-R2B holoenzyme, primary screen, biochemical, fluorescence polarization, Cy5-IP20, human (AID 504700);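 also: higher means more holoenzyme dissociation and a rise in polarization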
# Details: PKA-R2B holoenzyme dissociation, at 11.4 µM, active compounds read high, 0% DMSO only, 100% 113 µM cGMP, R2B truncated from residue 108, S112A mutant
row,SMILES,activation
1,CCC(=O)N(c1ccccc1)C1(COC)CCN(CCc2cccs2)CC1,inactive: -1.69%
2,CCC(=O)N(c1ccccc1)C1(COC)CCN(CCn2nnn(CC)c2=O)CC1,inactive: 0.78%
